# Source: paper PMC7259758 (PLoS ONE, 2020)
# System: phosphorylation of SR proteins
# Assay: Western blot of nuclear extracts, phosphor-SR proteins
# Conditions: HCT116 and Rh18 cells, 4 h; SD6 10 μM, compound 1 10 μM, compound 2 5 μM, compound 3 10 μM
substance,measurement,value
PF-562271,Effect on phosphorylation of SR proteins (immunoblot),"inhibited the phosphorylation of SR proteins in both HCT116 and Rh18 cells, but to a lesser extent than compound 1 or 2"
